What follows are sequences tested on A549 cells (assay: Entry of FITC-labeled polypeptides detected by flow cytometry). Settings: single site mutants, 1 μM, 3 h, FIG. 37.
Type: cell-based
With RLFFKCIYRRLKYGLKRG the “cell-penetrating peptide function compared with positive control TAT” value was “stronger than that of the positive control TAT”.
For RLFFKCAYRRLKYGLKRG, the “cell-penetrating peptide function compared with the parent polypeptide” value was “stronger than that of the parent Jilin-2004(H5N1)-M2-45-62 polypeptide”.
For RLFFKCIKRRLKYGLKRG, the “cell-penetrating peptide function compared with the parent polypeptide” value was “stronger than that of the parent Jilin-2004(H5N1)-M2-45-62 polypeptide”.
With RLFFKCIYRRLKYGAKRG the “cell-penetrating peptide function compared with the parent polypeptide” value was “stronger than that of the parent Jilin-2004(H5N1)-M2-45-62 polypeptide”.
RAFFKCIYRRLKYGLKRG was tested, and the “cell-penetrating peptide function compared with the parent polypeptide” value was “stronger than that of the parent Jilin-2004(H5N1)-M2-45-62 polypeptide”.
With RLFFKCIYSRLKYGLKRG the “cell-penetrating peptide function compared with the parent polypeptide” value was “stronger than that of the parent Jilin-2004(H5N1)-M2-45-62 polypeptide”.
